Test results taken from PMC2222611, “Species-specific pharmacology of Trichloro(sulfanyl)ethyl benzamides as transient receptor potential ankyrin 1 (TRPA1) antagonists” (2007).

The chains behind the UniProt entries cited, without tags or fusion partners.
UniProt O75762, whole entry, looked up: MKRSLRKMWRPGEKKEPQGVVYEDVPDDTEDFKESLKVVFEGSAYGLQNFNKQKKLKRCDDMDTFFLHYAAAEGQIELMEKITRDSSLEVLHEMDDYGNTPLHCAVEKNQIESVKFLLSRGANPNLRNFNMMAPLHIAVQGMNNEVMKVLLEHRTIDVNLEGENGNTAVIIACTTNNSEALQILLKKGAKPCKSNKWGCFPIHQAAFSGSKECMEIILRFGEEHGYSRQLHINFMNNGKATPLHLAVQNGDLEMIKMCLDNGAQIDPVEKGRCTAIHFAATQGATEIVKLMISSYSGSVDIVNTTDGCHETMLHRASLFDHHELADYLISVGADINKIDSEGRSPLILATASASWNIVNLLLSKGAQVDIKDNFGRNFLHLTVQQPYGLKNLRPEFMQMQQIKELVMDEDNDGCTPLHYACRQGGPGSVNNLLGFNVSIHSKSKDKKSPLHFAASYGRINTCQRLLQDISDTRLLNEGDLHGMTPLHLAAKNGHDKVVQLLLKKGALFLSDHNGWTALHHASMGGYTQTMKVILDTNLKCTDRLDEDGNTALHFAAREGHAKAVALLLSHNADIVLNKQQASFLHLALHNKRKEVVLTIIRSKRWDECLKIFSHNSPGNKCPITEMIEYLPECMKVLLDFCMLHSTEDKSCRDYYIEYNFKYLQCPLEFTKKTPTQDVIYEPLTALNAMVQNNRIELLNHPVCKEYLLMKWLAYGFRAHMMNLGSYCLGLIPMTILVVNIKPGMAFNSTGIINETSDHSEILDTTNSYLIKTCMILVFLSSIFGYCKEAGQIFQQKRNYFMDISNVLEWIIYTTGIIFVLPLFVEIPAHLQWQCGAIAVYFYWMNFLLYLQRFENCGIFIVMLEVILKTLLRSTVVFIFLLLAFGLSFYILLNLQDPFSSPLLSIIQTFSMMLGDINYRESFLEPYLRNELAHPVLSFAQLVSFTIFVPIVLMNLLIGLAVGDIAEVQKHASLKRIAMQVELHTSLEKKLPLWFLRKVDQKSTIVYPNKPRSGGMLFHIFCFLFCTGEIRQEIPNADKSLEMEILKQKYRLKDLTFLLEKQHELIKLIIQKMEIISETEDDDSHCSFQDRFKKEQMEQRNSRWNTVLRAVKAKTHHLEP
UniProt Q6RI86, whole entry, looked up: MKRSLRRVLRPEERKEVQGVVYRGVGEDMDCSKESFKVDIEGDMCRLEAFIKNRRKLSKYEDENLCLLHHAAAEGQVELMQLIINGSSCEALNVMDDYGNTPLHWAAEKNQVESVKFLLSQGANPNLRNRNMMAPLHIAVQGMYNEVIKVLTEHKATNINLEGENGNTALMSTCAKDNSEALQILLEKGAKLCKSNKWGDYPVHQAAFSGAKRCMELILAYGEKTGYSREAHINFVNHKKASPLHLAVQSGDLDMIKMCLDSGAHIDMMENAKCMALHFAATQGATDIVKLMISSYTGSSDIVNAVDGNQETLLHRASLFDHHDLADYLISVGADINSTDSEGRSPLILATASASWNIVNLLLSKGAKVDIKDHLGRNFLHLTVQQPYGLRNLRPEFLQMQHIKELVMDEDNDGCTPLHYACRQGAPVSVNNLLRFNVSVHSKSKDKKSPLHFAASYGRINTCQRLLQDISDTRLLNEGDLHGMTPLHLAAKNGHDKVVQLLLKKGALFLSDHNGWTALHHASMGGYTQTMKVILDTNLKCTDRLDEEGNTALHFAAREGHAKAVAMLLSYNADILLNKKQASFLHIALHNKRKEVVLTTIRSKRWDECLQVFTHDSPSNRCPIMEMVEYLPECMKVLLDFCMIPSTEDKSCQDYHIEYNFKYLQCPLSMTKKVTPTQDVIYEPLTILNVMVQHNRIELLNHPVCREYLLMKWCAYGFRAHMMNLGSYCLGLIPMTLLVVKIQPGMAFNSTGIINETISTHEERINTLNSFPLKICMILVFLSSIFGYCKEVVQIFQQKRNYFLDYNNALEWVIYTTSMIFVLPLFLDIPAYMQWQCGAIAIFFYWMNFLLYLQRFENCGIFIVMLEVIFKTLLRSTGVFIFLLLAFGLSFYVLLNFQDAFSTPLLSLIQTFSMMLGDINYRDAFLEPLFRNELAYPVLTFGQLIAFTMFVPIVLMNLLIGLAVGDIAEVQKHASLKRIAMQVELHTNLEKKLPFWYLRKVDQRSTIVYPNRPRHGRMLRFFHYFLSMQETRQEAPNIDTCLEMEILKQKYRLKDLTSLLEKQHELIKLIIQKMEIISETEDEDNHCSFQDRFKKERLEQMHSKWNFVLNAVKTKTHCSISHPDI
UniProt Q8NER1, whole entry, looked up: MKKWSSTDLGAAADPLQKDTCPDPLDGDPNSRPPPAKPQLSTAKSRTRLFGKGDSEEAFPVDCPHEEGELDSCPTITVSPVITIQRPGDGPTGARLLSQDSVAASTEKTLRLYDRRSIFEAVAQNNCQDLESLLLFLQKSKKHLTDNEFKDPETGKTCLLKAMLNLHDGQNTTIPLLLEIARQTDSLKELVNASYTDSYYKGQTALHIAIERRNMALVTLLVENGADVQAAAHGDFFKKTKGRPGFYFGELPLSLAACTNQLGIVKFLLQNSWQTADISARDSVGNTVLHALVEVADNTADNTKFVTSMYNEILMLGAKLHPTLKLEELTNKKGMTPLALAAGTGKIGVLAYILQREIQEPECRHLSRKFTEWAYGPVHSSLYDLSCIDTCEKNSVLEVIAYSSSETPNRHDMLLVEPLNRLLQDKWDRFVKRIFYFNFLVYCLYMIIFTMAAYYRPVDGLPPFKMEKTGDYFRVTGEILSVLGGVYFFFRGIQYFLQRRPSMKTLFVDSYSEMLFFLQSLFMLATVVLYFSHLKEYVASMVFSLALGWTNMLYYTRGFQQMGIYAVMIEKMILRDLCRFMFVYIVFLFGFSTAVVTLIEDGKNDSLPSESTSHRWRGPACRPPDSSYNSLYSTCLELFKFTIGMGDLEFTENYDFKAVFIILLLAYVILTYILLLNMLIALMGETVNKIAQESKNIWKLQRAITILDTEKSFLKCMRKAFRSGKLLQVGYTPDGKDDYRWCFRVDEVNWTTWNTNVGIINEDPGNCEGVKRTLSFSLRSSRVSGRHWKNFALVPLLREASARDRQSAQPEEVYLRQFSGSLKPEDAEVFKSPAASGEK

Assays:
hTRPA1 [1] = target: T1, hTRPA1 (Homo sapiens, UniProt O75762); test: Aequorin luminescence readout assay for intracellular calcium in CHO cells expressing human TRPA1; conditions: read-out: IC50 for inhibition of AITC activation of human TRPA1 (increase in intracellular calcium), 80 μM AITC
rat TRPA1 = rat TRPA1 (Rattus norvegicus, UniProt Q6RI86); test: Aequorin luminescence readout assay for intracellular calcium in CHO cells expressing rat TRPA1; conditions: for IC50: read-out: IC50 for inhibition of AITC-induced increase in intracellular calcium, rat TRPA1, 80 μM AITC, marginal inhibition; for agonism at rat TRPA1 (increase in intracellular calcium by compound alone): up to 50 μM; for agonism at rat TRPA1 (increase in intracellular calcium by compound alone) / maximum efficacy at rat TRPA1 compared to 80 μM AITC efficacy / EC50: compound alone; for maximum efficacy at rat TRPA1 compared to 80 μM AITC efficacy: relative to 80 μM AITC; for EC50: read-out: EC50 for increase in intracellular calcium at rat TRPA1 (partial agonism), CHO cells expressing rat TRPA1
hTRPV1 = hTRPV1 (Homo sapiens, UniProt Q8NER1); test: Aequorin luminescence selectivity assay, capsaicin-activated TRPV1 in CHO cells; conditions: read-out: IC50, inhibition of capsaicin activation of hTRPV1, 0.5 μM capsaicin, evaluated up to 5 μM
hTRPA1 [2] = target: T1, hTRPA1; test: Cold antagonism assay (45Ca2+ uptake) in CHO cells expressing human TRPA1; conditions: read-out: IC50 for inhibition of noxious cold-induced 45Ca2+ uptake, human TRPA1, cold 3.5°C (legends: 4°C)
hTRPA1 [3] = target: T1, hTRPA1; test: Whole-cell voltage-clamp electrophysiology (PatchXpress 7000A) in CHO cells expressing hTRPA1; conditions: read-out: IC50 for inhibition of AITC-induced currents, human TRPA1, 80 μM AITC, holding potential -70 mV
rTRPA1 = rTRPA1 (Rattus norvegicus, UniProt Q6RI86); test: Whole-cell voltage-clamp electrophysiology (PatchXpress 7000A) in CHO cells expressing rTRPA1

Structure (SMILES) | IC50 (hTRPA1 [1]) [nM] | IC50 (rat TRPA1) [µM] | agonism at rat TRPA1 (increase in intracellular calcium by compound alone) (rat TRPA1) | IC50 (hTRPV1) [µM] | IC50 (hTRPA1 [2]) [nM] | IC50 (hTRPA1 [3]) [nM] | block of currents generated by 80 μM AITC, rat TRPA1 (rTRPA1) | inward currents induced by compound alone, rat TRPA1 (rTRPA1) | maximum efficacy at rat TRPA1 compared to 80 μM AITC efficacy (rat TRPA1) | EC50 (rat TRPA1) [nM]
O=C(NC(Sc1ccc(Cl)cc1)C(Cl)(Cl)Cl)c1ccc([N+](=O)[O-])cc1 (centres unmarked) | 35 | > 30 | did not induce an increase in intracellular calcium | > 5 | 105 | 167 | nor significantly blocked currents | neither inducing any inward currents by themselves |  | 
O=C(NC(Sc1ccc(Cl)cc1)C(Cl)(Cl)Cl)c1ccccc1 (centres unmarked) | 21 |  |  | > 5 | 7 | 120 |  | induced inward currents | approximately 50% | 66
COc1ccc(C(=O)NC(Sc2ccc(Cl)cc2)C(Cl)(Cl)Cl)cc1 (centres unmarked) | 91 |  |  |  | 29 | 260 |  | induced inward currents | approximately 35% | 115
O=C(NC(Sc1ccc(Cl)cc1)C(Cl)(Cl)Cl)c1ccc(Br)cc1 (centres unmarked) | 51 | > 30 | did not induce an increase in intracellular calcium | > 5 | 28 | 252 | nor significantly blocked currents | neither inducing any inward currents by themselves |  | 
